System: liver fibrosis model in rat induced by CCl4
Experiment: Prophylaxis action on liver fibrosis in rats induced by CCl4 with high lipid, low protein food
Type: in vivo
Settings: CCl4 fibrotic rats; 6 weeks dosing; x ± s
Experimental: Pharmacological model: The liver fibrosis model in rat was induced by hypodermical injection of CCl4 and fed with the food containing high lipid and low protein. 100 wt % CCl4 was used at the first injection with a dosage of 1 ml/kg wt rat, then 40 wt % CCl4 in olive oil with a dosage of 3 ml/kg wt. was applied, twice per week and lasting for 2 weeks. During the first 2 weeks of intoxication, the rats were fed with the food containing 79.5 wt % maizena, 20 wt % grease and 0.5 wt % cholesterol, then with the pure maize food for later 4 weeks.
All dosages were 10 times human dosage with 65 kg by the same body weight.

Substance: Vitamin E [Vit E]
- Serum Alb: 27.7 ± 1.1 g/L

From patent US9138449B2, “Medicinal composition for liver diseases” (Shanghai Sundise Chinese Medicine Technology Development …, priority 2006, dated 2015)
